{
  "source": "patent US20120070411A1",
  "about": "“SUBSTITUTED NUCLEOTIDE ANALOGS” (Alios BioPharma, Inc., priority 2010, published 2012)",
  "test_system": "HCV genotype 1b HCV replicon harbored in Huh7 cells",
  "test": "Combination testing with compound A10 in HCV replicon (CalcuSyn CI and MacSynergy II synergy volume)",
  "assay_type": "cell-based",
  "conditions": "combination of compound A10 with the listed compound; MacSynergy II, Bliss independence; 25-100 synergistic, >100 strongly synergistic",
  "experimental": "Two or more test compounds were tested in combination with each other using an HCV genotype 1b HCV replicon harbored in Huh7 cells with a stable luciferase (LUC) reporter. Cells were cultured under standard conditions in Dulbecco's modified Eagle's medium (DMEM; Mediatech Inc, Herndon, Va.) containing 10% heat-inactivated fetal bovine serum (FBS; Mediatech Inc, Herndon, Va.) 2 mM L-glutamine, and nonessential amino acids (JRH Biosciences). HCV replicon cells were plated in a 96-well plate at a density of 10^4 cells per well in DMEM with 10% FBS. […] The cells were incubated with no compound as a control, with the test compounds, or the combination of compounds for 72 h. The direct effects of the combination of the test compounds were examined using a luciferase (LUC) based reporter as determined by the Bright-Glo Luciferase Assay (Promega, Madison, Wis.). Dose-response curves were determined for individual compounds and fixed ratio combinations of two or more test compounds.\nThe effects of test compound combinations were evaluated by two separate methods. In the Loewe additivity model, the experimental replicon data was analyzed by using CalcuSyn (Biosoft, Ferguson, Mo.), a computer program based on the method of Chou and Talalay. The program uses the experimental data to calculate a combination index (CI) value for each experimental combination tested. […]",
  "data": [
    {"molecule": "CS(=O)(=O)Nc1ccc2c(c1)S(=O)(=O)N=C(C1=C(O)[C@@H]3[C@H]4CC[C@H](C4)[C@@H]3N(Cc3ccc(F)cc3)C1=O)N2", "note": "[ANA-598]", "values": [
      {"measurement": "Synergy Volume", "value": 32, "unit": "μM^2%"}
    ]}
  ]
}
